Experiment: Particle size, polydispersity and zeta potential measurement (DLS, ELS)
Assay type: physicochemical
Experimental: 6.6 Particle Size and Zeta Potential Measurement for pDNA, mRNA, siRNA, Cas9 mRNA/sgRNA and Cas9 mRNA/sgRNA/ssDNA Polyplexes as Well as mRNA LNPs
Measurements of size and zeta potential were performed with a Zetasizer Nano ZS (Malvern Instruments, Malvern, Worcestershire, U.K.) in a folded capillary cell (DTS1070) by dynamic and electrophoretic laser-light scattering (DLS, ELS). […] Samples were measured three times with six sub runs per measurement. For measurement of the zeta potential, all samples were diluted to 800 μL with HBG or HEPES (for siRNA polyplexes) directly before measurement. Parameters were identical to the size measurement apart from an equilibration time of 60 sec. Three measurements with 15 sub runs lasting 10 sec each were performed, and zeta potentials were calculated by the Smuchowski equation.

Substance | Pdl (Cas9 mRNA/sgDMDex23 polyplexes, N/P 24, combined nucleic acid 12.5 μg/mL) | Z-average (dialyzed mRNA polyplexes for in vivo application, 66.7 μg/mL mRNA, 1611 N/P 18, 1719 N/P 12) [nm]
K(8Oc)2-Stp2-K(8Oc)-K(8Oc) [compound 1731] | 0.201 | 
[K(12Oc)]2-Stp2-[K(12Oc)]2 [compound 1719] |  | 108.7 ± 2.0
